Assay outcomes as filed in PubChem BioAssay.
CAL PDZ FP-1 = CAL PDZ peptide-binding inhibitors, primary screen, biochemical, fluorescence polarization, Cer-tagged CAL PDZ, HTS; Golgi-associated PDZ and coiled-coil motif-containing protein (Homo sapiens), Q9HD26; AID 504414, 2011; purified CAL PDZ, TMR-peptide fluorescence polarization, 1 h; inhibition, % at 20 µM; 0.02% of 330,000 active;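 active = highest replicate inhibition of at least 40%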;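 also: plate controls were DMSO neutral control wells for no effect and unlabeled competitor peptide control wells for full effect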
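material = purified tagged CAL PDZ domain construct (CerCALP) | compound dosing = 20 µM, one dose | times = 1 h at RT | measured by = fluorescence polarization from S- and P-plane intensities, G-factor corrected | read-out = inhibition from polarization loss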
Dyrk1A ADPGlo = rat Dyrk1A kinase inhibitors, primary screen, biochemical, single point, plate reader. ADP-Glo luminescence, NFATc1 peptide. inhibition, % at 12.5 µM. 0.43% of 310,000 active; in the data active = inhibition above about 50%;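 also: plate controls were vehicle with enzyme for no effect and no enzyme for full effect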
UUG fidelity = alters start codon recognition fidelity in yeast | S. cerevisiae UUG-firefly luciferase reporter, luminescence/redox ratio | activity score, % at 18.7 µM | hit rate 0.13% among 350,000 | AID 602363;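 active means replicate mean at a twofold rise or more, about +100% in these data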;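 further: firefly luciferase made from a UUG start codon reports start codon fidelity; reporter light over untreated wells divided by growth signal over untreated wells; some hits fall short of that in this replicate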
CAL PDZ FP-2 = untagged CAL PDZ binding inhibitors, primary screen, biochemical, fluorescence polarization, HTS; Golgi-associated PDZ and coiled-coil motif-containing protein (Homo sapiens), Q9HD26; purified CAL PDZ, TMR-peptide fluorescence polarization, 1 h; inhibition, % at 24.9 µM; 0.92% of 300,000 active; AID 602252, 2012;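 active = mean inhibition of at least 30% with at least half of replicates also reaching 30%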;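 also: 0% = DMSO neutral control and 100% = excess unlabeled competitor peptide PRC23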
dFosB act-1 = activators of delta FosB homodimer, primary screen, biochemical, fluorescence polarization, TAMRA-CDK5 oligo, single point; Protein FosB (Mus musculus), P13346; purified delta FosB; percent of positive-control signal above neutral wells; activation, % at 25 µM; 0.99% of 340,000 active; AID 493131, 2011;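 active = mean activation above about 17%, with every replicate also reaching it, limit read from the data, passing the limit was not always enough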
CDK5 inh = inhibitors of human CDK5/p35 kinase, primary screen, biochemical, single concentration. inhibition, % at 10 µM. Recombinant CDK5/p35, ADP-Glo luminescence, 60 min. 0.01% of 330,000 active. Cyclin-dependent kinase 5 (Homo sapiens) + Cyclin-dependent kinase 5 activator 1 (Homo …;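 active = highest replicate inhibition of at least 50% and at least 75% of replicates reaching 50%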;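 also: plate controls were DMSO neutral control for no effect and GW8510 at 10 µM for full effect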
dFosB act-2 = activators of mouse delta FosB DNA binding, confirmation, biochemical, fluorescence polarization, TAMRA-CDK5 oligo, cherry-picked samples; 2,400 tested, under 10 active; shares compounds with dFosB act-1; activation, % at 24.9 µM; purified delta FosB; normalised: neutral wells 0, positive control 100; AID 588690, 2011;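 active = highest replicate activation at or above 34% and every replicate reaching that threshold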;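 also: higher polarization means more probe DNA bound by delta FosB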
* hit, by the source's call. Shown are actives, neighbours in structure and some others; about 1.7% of the full set was active somewhere.

For O=C1COc2ccc(C(=O)COC(=O)c3cc(S(=O)(=O)NCc4ccccc4)ccc3O)cc2N1 the results were CAL PDZ FP-1 -1, Dyrk1A ADPGlo -3, CAL PDZ FP-2 3, dFosB act-1 66*, CDK5 inh -1 and dFosB act-2 -1.
For Cc1ccc(CNC(=O)CSc2nnc3c(n2)[nH]c2ccccc23)cc1 the results were CAL PDZ FP-1 -2, Dyrk1A ADPGlo -3, UUG fidelity 0, CAL PDZ FP-2 -1, dFosB act-1 28*, CDK5 inh -2 and dFosB act-2 7.
For COc1ccc(CNC(=O)CSc2nnc3c(n2)[nH]c2ccc(F)cc23)cc1 the results were CAL PDZ FP-1 -2, Dyrk1A ADPGlo 3, UUG fidelity -15, CAL PDZ FP-2 -1, dFosB act-1 -2 and CDK5 inh 1.
Screening COc1ccc(CNC(=O)CSc2nnc3c(n2)[nH]c2ccc(OC)cc23)cc1 returned CAL PDZ FP-1 -1, Dyrk1A ADPGlo -7, dFosB act-1 40*, CDK5 inh 1 and dFosB act-2 -2.
`COc1ccc2[nH]c3nc(SCc4nnc(-c5ccccc5)o4)nnc3c2c1` gave CAL PDZ FP-1 -2, Dyrk1A ADPGlo 0, CAL PDZ FP-2 -3, dFosB act-1 19*, CDK5 inh -2 and dFosB act-2 2.
For C[C@@H]1CCCCO[C@@H](CN(C)S(=O)(=O)c2ccccc2)[C@@H](C)CN([C@@H](C)CO)C(=O)c2cc(NS(=O)(=O)c3ccc(Cl)cc3)ccc2O1 the results were UUG fidelity 8.
For CCN1[C@@H]2c3ccc(-c4ccccc4)c(=O)n3C[C@H]1[C@H](CO)[C@H]2C(=O)NCc1ccccc1 the results were UUG fidelity 9.
For C[C@H]1CCCCO[C@H](CN(C)S(=O)(=O)c2cccs2)[C@@H](C)CN([C@@H](C)CO)C(=O)c2cc(NC(=O)Nc3ccccc3)ccc2O1 the results were UUG fidelity -12.
COc1ccc(NC(=O)c2c[nH]c(=O)n(-c3ccc(C)c(C)c3)c2=O)cc1OC was read as CAL PDZ FP-1 -1, Dyrk1A ADPGlo 18, UUG fidelity -16, dFosB act-1 -20 and CDK5 inh 0.
`COc1ccc(NC(=O)c2c[nH]c(=O)n(-c3ccc(C)c(C)c3)c2=O)c(OC)c1` gave CAL PDZ FP-1 0, Dyrk1A ADPGlo -5, UUG fidelity -15, dFosB act-1 35*, CDK5 inh -1 and dFosB act-2 4.

3 consecutive entries already listed, for reference:
For C[C@H]1CCCCO[C@H](CN(C)S(=O)(=O)c2cccs2)[C@@H](C)CN([C@@H](C)CO)C(=O)c2cc(NC(=O)Nc3ccccc3)ccc2O1 the results were UUG fidelity -12.
COc1ccc(NC(=O)c2c[nH]c(=O)n(-c3ccc(C)c(C)c3)c2=O)cc1OC was read as CAL PDZ FP-1 -1, Dyrk1A ADPGlo 18, UUG fidelity -16, dFosB act-1 -20 and CDK5 inh 0.
`COc1ccc(NC(=O)c2c[nH]c(=O)n(-c3ccc(C)c(C)c3)c2=O)c(OC)c1` gave CAL PDZ FP-1 0, Dyrk1A ADPGlo -5, UUG fidelity -15, dFosB act-1 35*, CDK5 inh -1 and dFosB act-2 4.

The list continues.
`CCCCCc1cc(=O)oc2c(C(CCN3CCCCC3)c3cc(OC)c(OC)c(OC)c3)c(OC)cc(OC)c12` (configuration not stated) gave CAL PDZ FP-1 -1, Dyrk1A ADPGlo 11, UUG fidelity 6, CAL PDZ FP-2 -6, dFosB act-1 0 and CDK5 inh 1.
Screening CCCCCc1cc(=O)oc2c(C(CCN3CCCC(C)C3)c3cc(OC)c(OC)c(OC)c3)c(OC)cc(OC)c12 (configuration not stated) returned CAL PDZ FP-1 -1, Dyrk1A ADPGlo 3, UUG fidelity 25, CAL PDZ FP-2 -2, dFosB act-1 19*, CDK5 inh -1 and dFosB act-2 -2.
For O=C(COC(=O)c1ccccc1NC(=O)c1ccco1)NCc1ccc2c(c1)OCO2 the results were CAL PDZ FP-1 1, Dyrk1A ADPGlo 2, UUG fidelity -4, CAL PDZ FP-2 0, dFosB act-1 30*, CDK5 inh 0 and dFosB act-2 2.
`Cc1nnc(NC(=O)CSc2nc(N)c(NC(=O)c3cccs3)c(=O)[nH]2)s1` gave CAL PDZ FP-1 -2, Dyrk1A ADPGlo -6, UUG fidelity -17, CAL PDZ FP-2 -10, dFosB act-1 10 and CDK5 inh -1.
Cc1ccc(C(=O)Nc2c(N)nc(SCC(=O)Nc3cc(C)on3)[nH]c2=O)cc1 was read as CAL PDZ FP-1 0, UUG fidelity -6, CAL PDZ FP-2 -3, dFosB act-1 26*, CDK5 inh 0 and dFosB act-2 -7.
Screening CCc1ccc(NC(=O)CSc2nc(N)c(NC(=O)c3ccc(F)c(F)c3)c(=O)[nH]2)cc1 returned CAL PDZ FP-1 0, Dyrk1A ADPGlo 2, UUG fidelity -12, CAL PDZ FP-2 2, dFosB act-1 29*, CDK5 inh 0 and dFosB act-2 4.
Screening COc1ccc(C(=O)Nc2c(N)nc(SCC(=O)Nc3ccc(NC(C)=O)cc3)[nH]c2=O)cc1 returned CAL PDZ FP-1 -1, UUG fidelity -8, CAL PDZ FP-2 -1, dFosB act-1 8 and CDK5 inh -3.
Screening Cc1cc(C)cc(NC(=O)CSc2nc(N)c(NC(=O)c3cccs3)c(=O)[nH]2)c1 returned CAL PDZ FP-1 -1, Dyrk1A ADPGlo 6, UUG fidelity -18, dFosB act-1 31*, CDK5 inh -1 and dFosB act-2 6.
Nc1nc(SCC(=O)Nc2ccc(F)cc2)[nH]c(=O)c1NC(=O)c1ccc(F)c(F)c1 was read as CAL PDZ FP-1 -3, Dyrk1A ADPGlo -6, UUG fidelity -16, CAL PDZ FP-2 0, dFosB act-1 27*, CDK5 inh 4 and dFosB act-2 -1.
`CC(=O)Nc1ccc2c(c1)C(=O)N(C)[C@H]1CC[C@@H](CC(=O)Nc3cn(C)nc3C)O[C@@H]1CO2` gave UUG fidelity -7.
For COc1ccc(CCn2c(=N)c(C(=O)NCCN3CCOCC3)cc3c(=O)n4cccc(C)c4nc32)cc1OC the results were CAL PDZ FP-1 -2, Dyrk1A ADPGlo 6, UUG fidelity 2, CAL PDZ FP-2 -3, dFosB act-1 22*, CDK5 inh 0 and dFosB act-2 0.
For Cc1cccn2c(=O)c3cc(C(=O)NCCc4ccccc4)c(=N)n(CCCn4ccnc4)c3nc12 the results were CAL PDZ FP-1 -3, Dyrk1A ADPGlo -5, UUG fidelity -23, CAL PDZ FP-2 -3, dFosB act-1 22*, CDK5 inh 0 and dFosB act-2 1.
COCCn1c(=N)c(C(=O)NCCc2ccccc2)cc2c(=O)n3cccc(C)c3nc21 was read as CAL PDZ FP-1 -1, Dyrk1A ADPGlo -4, CAL PDZ FP-2 -1, dFosB act-1 -2 and CDK5 inh 0.
